The subject of one data set is Balb C nu/nu mice. Put plainly: Toxic effects in mice, i.v. The following applies: doses spaced 24 hr apart, repeated after 1 week.
The nature of data set [1]: Stability in mouse plasma at 37° C, HPLC. Particulars: 0.5 mM.
Data set [2] is described as follows: Stability in IMDM cell growth medium at 37° C, HPLC. Particulars: media used for tissue culture (IMDM), 0.5 mM.

With `Nc1ccc(N(CCCl)CCCl)cc1`, the toxic dose in the data set with Balb C nu/nu mice came out at 50 µg/injection. The t1/2 turned out to be 20 min in data set [1] and 3 min in data set [2].

Source of the values: patent EP0742015A1, “Prodrugs for beta-lactamase and uses thereof” (Bristol-Myers Squibb Company, priority 1990, dated 1992).
